# Literature values, collected in article PMC7438494, “Bedaquiline inhibits the yeast and human mitochondrial ATP synthases” (Communications Biology, 2020).
# System: porcine mitochondria
smiles,measurement,value
COc1nc2ccc(Br)cc2cc1[C@@H](c1ccccc1)[C@@](O)(CCN(C)C)c1cccc2ccccc12,uncoupling effect,not observed
